Here are results for 1 molecule from patent US20230257479A1 (Genmab, published 2023).

What is called EC50 (read off the curve) is the concentration at which the effect is half-maximal. The Kd is the equilibrium constant for the complex coming apart. For orientation: koff means the first-order rate constant of dissociation. Usually kon stands for a measure of how fast the partners come together.

In experiment [1] the target is T1, full length human 5T4 (SEQ ID NO: 1) on cells (human, UniProt Q13641 32-420).
T1 construct: Uniprot Q13641; residues 1-31 are the signal peptide; Used both for transfected HEK-293 cells and for 5T4-expressing human tumor cell lines
T1 sequence: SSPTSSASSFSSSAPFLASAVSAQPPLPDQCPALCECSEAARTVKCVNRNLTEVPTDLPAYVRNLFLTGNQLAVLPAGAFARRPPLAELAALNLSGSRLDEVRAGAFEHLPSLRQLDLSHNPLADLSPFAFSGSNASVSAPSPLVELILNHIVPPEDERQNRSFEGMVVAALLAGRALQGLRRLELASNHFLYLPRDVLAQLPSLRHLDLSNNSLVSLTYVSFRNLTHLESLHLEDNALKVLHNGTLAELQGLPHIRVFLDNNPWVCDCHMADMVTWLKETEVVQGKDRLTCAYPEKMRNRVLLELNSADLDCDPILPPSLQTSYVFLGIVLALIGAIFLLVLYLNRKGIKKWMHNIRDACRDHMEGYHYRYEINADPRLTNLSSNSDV
As to the kind of experiment: flow cytometry, HeLa cells, PE secondary [II)C].

Experiment [2] deals with T1, full length human 5T4 (SEQ ID NO: 1) on …. As to the kind of experiment: flow cytometry, MDA-MB-231 cells, FITC secondary [I)B].
Experiment [3] has the same target. As to the kind of experiment: flow cytometry, HEK-293 cells transfected with human 5T4, PE secondary [II)C].
Experiment [4] has as its target T2, human 5T4ECDHis (mature protein of SEQ ID NO: 99) (human, UniProt Q13641 32-355).
T2 construct: ECD of human 5T4 (aa 1-355 of Uniprot Q13641) with C-terminal His tag; residues 1-31 are the signal peptide; also called ECD of human 5T4 with a C-terminal His tag
T2 sequence: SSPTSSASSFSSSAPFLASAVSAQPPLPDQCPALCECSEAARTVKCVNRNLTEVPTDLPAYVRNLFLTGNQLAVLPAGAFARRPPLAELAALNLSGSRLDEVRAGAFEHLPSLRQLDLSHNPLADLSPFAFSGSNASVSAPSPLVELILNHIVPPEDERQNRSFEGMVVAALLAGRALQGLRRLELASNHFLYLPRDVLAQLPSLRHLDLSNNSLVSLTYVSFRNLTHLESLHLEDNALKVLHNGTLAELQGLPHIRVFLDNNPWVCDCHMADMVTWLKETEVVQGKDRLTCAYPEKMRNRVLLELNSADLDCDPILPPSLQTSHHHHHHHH
As to the kind of experiment: BLI cross-block; competitor (immobilised): IgG1-5T4-085-FEAR.

The target in experiment [5] is T2, human 5T4ECDHis (mature protein of SEQ …). As to the kind of experiment: BLI cross-block; competitor (immobilised): IgG1-5T4-059-FEAR.
The target is the same in experiment [6]. As to the kind of experiment: BLI, antibody on anti-human IgG Fc Capture biosensor, antigen in solution. Background: In BLI a coated tip is dipped into the sample, and binding shifts an interference pattern.
Experiment [7] has as its target T1, full length human 5T4 (SEQ ID NO: 1) on …. Kind of experiment: flow cytometry, MDA-MB-231 cells, PE secondary [III)C].
In experiment [8] the target is T2, human 5T4ECDHis (mature protein of SEQ …). Kind of experiment: BLI cross-block; competitor (immobilised): IgG1-5T4-226-FEAR.
In experiment [9] the target is T3, recombinant cynomolgus monkey 5T4 protein (Cusabio; cat. no. CSB-MP024093MOV) (cynomolgus monkey, UniProt Q4R8Y9 35-355).
T3 construct: extracellular domain; Bought protein; also called cynomolgus 5T4; cynomolgus monkey 5T4 extracellular domain
T3 sequence (looked up): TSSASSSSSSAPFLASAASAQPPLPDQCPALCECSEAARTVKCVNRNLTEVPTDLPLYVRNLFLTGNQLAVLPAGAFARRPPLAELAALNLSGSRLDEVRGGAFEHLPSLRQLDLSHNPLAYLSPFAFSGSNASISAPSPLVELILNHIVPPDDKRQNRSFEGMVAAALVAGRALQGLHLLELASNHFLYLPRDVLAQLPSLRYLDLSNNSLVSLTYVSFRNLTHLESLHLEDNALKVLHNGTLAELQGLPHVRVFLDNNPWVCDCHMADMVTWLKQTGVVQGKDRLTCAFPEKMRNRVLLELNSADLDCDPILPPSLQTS
As to the kind of experiment: BLI, antibody on anti-human IgG Fc Capture biosensor, antigen in solution.

Experiment [10] has as its target T2, human 5T4ECDHis (mature protein of SEQ …). Kind of experiment: BLI cross-block; competitor (immobilised): IgG1-5T4-A1-F405L.
Experiment [11] concerns the target T4, full length cynomolgus monkey 5T4 on transfected HEK-293 cells (cynomolgus monkey, UniProt Q4R8Y9 35-420).
T4 construct: Uniprot Q4R8Y9; residues 1-34 are the signal peptide; also called cynomolgus 5T4
T4 sequence: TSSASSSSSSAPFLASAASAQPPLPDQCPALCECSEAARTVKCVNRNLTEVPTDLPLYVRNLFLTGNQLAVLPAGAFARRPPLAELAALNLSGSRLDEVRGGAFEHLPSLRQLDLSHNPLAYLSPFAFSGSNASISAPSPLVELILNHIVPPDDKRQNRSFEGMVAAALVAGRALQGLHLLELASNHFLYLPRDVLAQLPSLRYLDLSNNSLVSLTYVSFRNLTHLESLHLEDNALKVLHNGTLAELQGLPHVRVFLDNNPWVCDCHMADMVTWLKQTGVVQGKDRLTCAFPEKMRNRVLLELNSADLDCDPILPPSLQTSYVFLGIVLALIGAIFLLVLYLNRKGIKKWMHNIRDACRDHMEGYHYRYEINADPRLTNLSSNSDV
Kind of experiment: flow cytometry, HEK-293 cells transfected with cynomolgus monkey 5T4, PE secondary [II)C].

Experiment [12] has as its target T2, human 5T4ECDHis (mature protein of SEQ …). Kind of experiment: BLI cross-block; competitor (immobilised): IgG1-5T4-H8-FEAR.
For experiment [13] the target is unchanged. As to the kind of experiment: BLI cross-block; competitor (immobilised): IgG1-5T4-127-FEAR.
Experiment [14] shares this target. Kind of experiment: BLI cross-block; competitor (immobilised): IgG1-5T4-207-FEAR.
For experiment [15] the target is unchanged. As to the kind of experiment: BLI cross-block; competitor (immobilised): IgG1-5T4-106-FEAR.
For experiment [16] the target is unchanged. Kind of experiment: BLI cross-block; competitor (immobilised): IgG1-5T4-076-FEAR.
Experiment [17] deals with T1, full length human 5T4 (SEQ ID NO: 1) on …. Kind of experiment: flow cytometry, HeLa cells, FITC secondary [I)B].

B1: IgG1-5T4-059-FEAR (antibody, V domains shown)
VH: QVQLVESGGGVVQPGRSLRLSCAVSGFTFSSYDMNWVRQAPGKGLEWVTFISYDGSNKYNADSVKGRFTISRDNSKNTLYLQMNSLRAEDTAVYYCARDSYSRSWYGDYYGMDVWGQGTTVTVSS
VL: DIQMTQSPSSLSASVGDRVTITCRASQGISSWLAWYQQKPEKAPKSLIYAASSLQSGVPSRFSGSGSGTDFTLTISSLQPEDFATYYCQQYNSYPLTFGGGTKVEIK
notes: Monospecific, bivalent human IgG1 kappa with L234F, L235E, D265A, K409R (FEAR); also called IgG1-5T4-059-04-FEAR
Consider B1, for which the “EC50 (read off the curve)” value in experiment [1] is around 0.04 µg/mL; in experiment [2], around 0.1 µg/mL; in [3], around 0.08 µg/mL; in [7], around 0.03 µg/mL; in experiment [11], around 0.05 µg/mL; in experiment [17] it was around 0.05 µg/mL. The corrected association response in experiment [4] was -0.04 nm; in experiment [5], 0.01 nm; in experiment [8] it was -0.02 nm; in experiment [10], 0.91 nm; in experiment [12], -0.02 nm; in [13], -0.05 nm. Further, the corrected association response is -0.02 nm in experiment [14], -0.03 nm in experiment [15] and -0.02 nm in experiment [16]. The Kd in [6] worked out at 1.5 nM; in experiment [9], 1.8 nM. In addition, the figures for the koff in experiment [6] and in experiment [9] were 0.00032 s⁻¹ and 0.00028 s⁻¹, respectively. Besides, the kon in experiment [6] was 210000 M⁻¹ s⁻¹; in experiment [9] it was 160000 M⁻¹ s⁻¹.
